IC50 data for one compound are collected here from patent publication US11358977B2, “Deuterated pyridone amides and prodrugs thereof as modulators of sodium channels” (VERTEX PHARMACEUTICALS INCORPORATED, priority 2017, dated 2022).

Sequences of proteins named here, by UniProt entry; tags and fusion partners are left off.
UniProt Q9Y5Y9, whole entry: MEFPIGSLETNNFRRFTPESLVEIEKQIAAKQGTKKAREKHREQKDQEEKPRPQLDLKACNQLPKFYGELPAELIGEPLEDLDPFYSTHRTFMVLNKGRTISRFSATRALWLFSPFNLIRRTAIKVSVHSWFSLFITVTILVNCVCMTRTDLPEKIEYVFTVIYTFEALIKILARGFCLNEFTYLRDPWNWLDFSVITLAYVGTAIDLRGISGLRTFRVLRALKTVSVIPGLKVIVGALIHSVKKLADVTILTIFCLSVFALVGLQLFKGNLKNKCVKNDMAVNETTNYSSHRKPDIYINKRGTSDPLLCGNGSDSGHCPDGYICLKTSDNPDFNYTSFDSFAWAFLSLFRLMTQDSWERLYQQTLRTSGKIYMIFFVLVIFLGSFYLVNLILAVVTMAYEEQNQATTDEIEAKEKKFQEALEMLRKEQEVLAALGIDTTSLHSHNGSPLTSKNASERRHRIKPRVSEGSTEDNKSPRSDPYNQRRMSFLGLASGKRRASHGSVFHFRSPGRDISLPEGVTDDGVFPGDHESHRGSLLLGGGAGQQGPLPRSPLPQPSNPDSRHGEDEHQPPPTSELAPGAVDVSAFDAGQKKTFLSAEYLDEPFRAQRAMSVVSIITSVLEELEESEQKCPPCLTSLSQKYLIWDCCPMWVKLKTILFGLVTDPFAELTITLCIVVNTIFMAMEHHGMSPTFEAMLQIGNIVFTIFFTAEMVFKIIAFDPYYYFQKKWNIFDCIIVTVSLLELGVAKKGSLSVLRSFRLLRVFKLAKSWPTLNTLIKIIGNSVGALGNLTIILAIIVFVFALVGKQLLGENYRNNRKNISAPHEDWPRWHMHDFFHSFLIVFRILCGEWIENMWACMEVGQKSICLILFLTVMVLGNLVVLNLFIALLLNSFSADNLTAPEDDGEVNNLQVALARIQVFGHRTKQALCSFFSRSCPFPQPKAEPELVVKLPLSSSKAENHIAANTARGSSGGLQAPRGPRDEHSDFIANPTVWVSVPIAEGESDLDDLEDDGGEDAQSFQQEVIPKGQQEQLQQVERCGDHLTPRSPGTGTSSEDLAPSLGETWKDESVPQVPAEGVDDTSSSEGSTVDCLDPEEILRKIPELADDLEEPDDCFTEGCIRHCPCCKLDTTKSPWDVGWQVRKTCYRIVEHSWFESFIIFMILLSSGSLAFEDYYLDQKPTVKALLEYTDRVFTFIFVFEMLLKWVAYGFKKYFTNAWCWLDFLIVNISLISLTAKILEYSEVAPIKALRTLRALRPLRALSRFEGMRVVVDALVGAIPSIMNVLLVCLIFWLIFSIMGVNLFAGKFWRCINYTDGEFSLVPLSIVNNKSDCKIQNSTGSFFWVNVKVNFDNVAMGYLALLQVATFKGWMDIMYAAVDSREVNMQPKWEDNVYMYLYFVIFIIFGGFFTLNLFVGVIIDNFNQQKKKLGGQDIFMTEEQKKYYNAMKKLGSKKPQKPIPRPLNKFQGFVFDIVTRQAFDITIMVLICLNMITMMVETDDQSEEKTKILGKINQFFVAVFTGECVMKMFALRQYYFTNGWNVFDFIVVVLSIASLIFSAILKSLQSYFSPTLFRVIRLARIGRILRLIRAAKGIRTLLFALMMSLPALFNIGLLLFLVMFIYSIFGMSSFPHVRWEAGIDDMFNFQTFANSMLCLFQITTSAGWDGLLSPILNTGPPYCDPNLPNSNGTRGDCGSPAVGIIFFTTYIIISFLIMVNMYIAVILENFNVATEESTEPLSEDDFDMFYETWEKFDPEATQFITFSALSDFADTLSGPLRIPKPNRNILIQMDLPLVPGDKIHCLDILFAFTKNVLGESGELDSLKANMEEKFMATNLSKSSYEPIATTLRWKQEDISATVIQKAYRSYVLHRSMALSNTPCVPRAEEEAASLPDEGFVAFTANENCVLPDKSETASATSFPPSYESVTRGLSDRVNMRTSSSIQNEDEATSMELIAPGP

The target of the assay is T1, human NaV 1.8 (Homo sapiens, UniProt Q9Y5Y9).
T1 construct: expressed in transfected cells; host or cells: HEK cells, grown under blasticidin selection; KIR2.1 BacMam virus added before seeding
Kind of assay: E-VIPR assay for NaV inhibition. Format: cell-based. As to conditions: HEK cells expressing human NaV 1.8, E-VIPR, 11 point dose response, top dose 3 μM; read-out: Nav1.8 IC50. From the text: Sodium ion channels are voltage-dependent proteins that can be activated by inducing membrane voltage changes by applying electric fields. The electrical stimulation instrument and methods of use, referred to as E-VIPR, are described in International Publication No. WO 2002/008748 A3 and C.-J. Huang et al. Characterization of voltage-gated sodium channel blockers by electrical stimulation and fluorescence detection of membrane potential, 24 Nature Biotech. 439-46 (2006), both of which are incorporated by reference in their entirety. The instrument comprises a microtiter plate handler, an optical system for exciting the coumarin dye while simultaneously recording the coumarin and oxonol emissions, a waveform generator, a current- or voltage-controlled amplifier, and parallel electrode pairs that are inserted into assay plate wells. Under integrated computer control, this instrument passes user-programmed electrical stimulus protocols to cells within the wells of the microtiter plate.
16-20 Hours prior to running the assay on E-VIPR, HEK cells expressing human NaV 1.8 were seeded into 384-well plates (Greiner #781091-1B), pre-coated with matrigel, at a density of 25,000 cells per well. 5% KIR2.1 Bacmam virus was added to the final cell suspension before seeding into cell plates. […]

Take `[2H]C([2H])([2H])c1cc(F)ccc1Oc1cc(C(F)(F)F)ccc1C(=O)Nc1cc[nH]c(=O)c1` [Compound 7, 2-(4-fluoro-2-(methyl-d3)phenoxy)-N-(2-oxo-1,2-dihydropyridin-4-yl)-4-(trifluoromethyl)benzamide]: the IC50 is 350 nM.
